Values quoted from earlier work in publication PMC13399020.

Chains of the proteins cited; added tags and fusions are not shown. Lines headed by an entry give the natural chain unless they say otherwise; changes in a name come on top.
UniProt P07101: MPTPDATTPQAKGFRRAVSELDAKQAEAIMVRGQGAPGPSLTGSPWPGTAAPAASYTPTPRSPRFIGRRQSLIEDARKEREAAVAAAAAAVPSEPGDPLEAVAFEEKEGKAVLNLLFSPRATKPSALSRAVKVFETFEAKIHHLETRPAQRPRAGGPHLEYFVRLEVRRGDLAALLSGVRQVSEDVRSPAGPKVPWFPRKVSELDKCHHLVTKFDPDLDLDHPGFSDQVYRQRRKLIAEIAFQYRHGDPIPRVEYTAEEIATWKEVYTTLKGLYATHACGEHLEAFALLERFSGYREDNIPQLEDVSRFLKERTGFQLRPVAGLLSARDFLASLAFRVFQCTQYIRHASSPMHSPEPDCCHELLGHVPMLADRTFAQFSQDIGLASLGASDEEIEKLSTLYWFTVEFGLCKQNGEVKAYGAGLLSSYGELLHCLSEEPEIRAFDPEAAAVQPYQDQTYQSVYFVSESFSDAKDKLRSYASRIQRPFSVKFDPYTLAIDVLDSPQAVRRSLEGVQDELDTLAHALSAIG
UniProt Q9UKB3: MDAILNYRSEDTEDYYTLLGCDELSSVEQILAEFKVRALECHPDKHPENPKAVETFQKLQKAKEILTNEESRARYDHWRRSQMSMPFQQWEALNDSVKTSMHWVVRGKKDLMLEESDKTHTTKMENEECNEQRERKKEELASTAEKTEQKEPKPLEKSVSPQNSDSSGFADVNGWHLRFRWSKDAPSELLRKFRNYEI

Target: Tyrosine hydroxylase (Homo sapiens) (UniProt P07101)

- Kd: 148 nM
Substance: DNAJC12 (from UniProt Q9UKB3)
